Source: US20200360381A1, “COMPOUNDS FOR TREATING DENGUE VIRUS INFECTION AND OTHER VIRAL INFECTIONS” (priority 2017, published 2020)

Test system: VSV-eGFP
Test: microbe, parasite or virus in culture
Format: cell-based
Details: Vesicular stomatitis virus, 6 h

Work on CN(CC(=O)N(Cc1ccc(C2CCCCC2)cc1)c1ccc(C(=O)O)cc1)S(=O)(=O)c1c(F)c(F)c(F)c(F)c1F [Compound S7337] yielded an inhibition at 5 µM (read-out: VSV 5 μM) of 17% and an inhibition at 10 µM (read-out: VSV 10 μM) of 66%.
